Data set [1] deals with prolactin. The data set is described as follows: Phase 1 hormone response, prolactin. Conditions: 125 mg-225 mg vs placebo group. It is filed as in vivo, human.
Data set [2] can be described thus: Phase 1 clinical study, plasma pharmacokinetics. Conditions: for dose proportionality in plasma: 75 to 225 mg single oral dose.

Each structure is given as a SMILES string.

Regarding `CN[C@H](C)Cc1ccc2c(c1)OCO2` [R(−)-MDMA, R(−)-3,4-methylenedioxymethamphetamine], the concentration of prolactin entry in data set [1] is recorded as “statistically significant increase”. The “dose proportionality in plasma” value in data set [2] is listed as “not established”. In addition, the absorption entry in data set [2] (single oral dose of 75 to 225 mg, all dose levels) is given as “rapidly absorbed”.

Regarding `C[C@@H](N)Cc1ccc2c(c1)OCO2` [R-MDA], the “dose proportionality in plasma” value in data set [2] is given as “not established”.
